Amino acid sequences for entries named in this document (tags omitted). Residues count along the entry.
UniProt P10636, 561-689 limits assumed: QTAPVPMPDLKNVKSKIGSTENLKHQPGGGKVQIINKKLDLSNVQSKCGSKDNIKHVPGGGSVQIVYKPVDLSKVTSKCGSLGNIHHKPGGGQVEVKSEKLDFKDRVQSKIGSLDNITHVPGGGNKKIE

In US20230255976A1, “Novel Compounds for the Treatment, Alleviation or Prevention of Disorders Associated with Tau Aggregates” (AC Immune SA, priority 2018, published 2023):

Target: Tau K18 fragment aggregates (amino acids 244 to 372 of human Tau441) (Homo sapiens, UniProt P10636)
Assay: Tau K18 disaggregation assay by ThT
Settings: read-out: Tau K18 disaggregation EC50; 2 μM K18 aggregates, compounds 160 to 0.04 μM, 30 min RT, ThT fluorescence; tested form: HCl

Work on COC1CCN(c2ccc(N3CCc4c([nH]c5ccccc45)C3)cn2)CC1 yielded an EC50 of under 10 µM.
